Laboratory results from PMC8113290, “[^11C]MODAG-001—towards a PET tracer targeting α-synuclein aggregates” (European Journal of Nuclear Medicine and Molecular Imaging, 2020).

Sequences of proteins named here, by UniProt entry; tags and fusion partners are left off. Residues count along the entry.
UniProt P05067, 672-713 limits assumed: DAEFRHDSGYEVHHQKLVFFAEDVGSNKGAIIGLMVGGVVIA
UniProt P10636, 1-412 isoform 7: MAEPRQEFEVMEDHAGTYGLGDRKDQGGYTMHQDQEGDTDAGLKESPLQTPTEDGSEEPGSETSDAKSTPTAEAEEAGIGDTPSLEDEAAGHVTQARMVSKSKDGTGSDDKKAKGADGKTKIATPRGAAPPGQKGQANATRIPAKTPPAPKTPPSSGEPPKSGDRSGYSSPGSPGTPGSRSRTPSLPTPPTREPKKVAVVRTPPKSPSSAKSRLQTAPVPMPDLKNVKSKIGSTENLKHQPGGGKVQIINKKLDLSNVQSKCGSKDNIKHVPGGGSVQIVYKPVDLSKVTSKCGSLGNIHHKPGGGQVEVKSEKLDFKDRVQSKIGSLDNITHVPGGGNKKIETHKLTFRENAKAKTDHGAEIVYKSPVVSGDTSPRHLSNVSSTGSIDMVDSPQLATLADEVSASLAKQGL

How the values were obtained:
[1] = test system: human brain sections (cortex) of LBD, PSP, AD and control cases; experiment: In vitro autoradiography in human brain tissue sections; conditions: 3 nM tracer, tested as the radiolabelled form
Aβ1–42 fibrils [2] = experiment: Saturation binding assay of [3H]MODAG-001 on Aβ1–42 fibrils; conditions: tested as the radiolabelled form
Aβ1–42 fibrils [3] = biological target: Aβ1–42 fibrils (Homo sapiens, UniProt P05067); experiment: as above; conditions: tested as the radiolabelled form
[4] = biological target: recombinant α-synuclein (αSYN) fibrils in mouse brain homogenates (Homo sapiens, UniProt P37840); experiment: Sensitivity analysis: saturation binding in mouse brain homogenates spiked with αSYN fibrils; conditions: tested as the radiolabelled form
hTau46 fibrils = hTau46 fibrils (Homo sapiens, UniProt P10636); experiment: Saturation binding assay of [3H]MODAG-001 on recombinant hTau46 fibrils; conditions: tested as the radiolabelled form
[5] = biological target: human recombinant αSYN fibrils (Homo sapiens, UniProt P37840); experiment: Saturation binding assay of [3H]MODAG-001 on recombinant αSYN fibrils; conditions: tested as the radiolabelled form

## CN(C)c1ccc(-c2cc(-c3ccnc(Br)c3)n[nH]2)cc1
[1]; AD case
  specific tracer binding, autoradiography: 167.7 ± 40.0 pmol/mg
[1]; LBD 1 case
  specific tracer binding, autoradiography: 80.5 ± 8.7 pmol/mg
[1]; LBD 2 case
  specific tracer binding, autoradiography: 64.4 ± 9.8 pmol/mg
[1]; PSP case
  specific tracer binding, autoradiography: 79.0 ± 13.3 pmol/mg
[1]; control case
  specific tracer binding, autoradiography: 64.1 ± 19.1 pmol/mg
Aβ1–42 fibrils [2]; Aβ1–42 vs αSYN fibrils
  lower affinity towards Aβ1–42 fibrils compared to αSYN fibrils (selectivity): 30 fold
Aβ1–42 fibrils [2]; αSYN vs Aβ1–42 fibrils
  Bmax higher for αSYN fibrils than for Aβ1–42 fibrils: 50 fold
Aβ1–42 fibrils [3]; Aβ1–42 fibrils 1 μM, saturation binding
  Kd: 20 nM
Aβ1–42 fibrils [3]; Aβ1–42 fibrils
  Bmax: 0.2 ± 0.1 pmol/nmol
[4]; 100 μg protein/mL mouse brain homogenate
  limit of detection of αSYN fibrils (αSYN concentration at which specific binding can still be calculated): 5 nM
[4]; 500 μg protein/mL homogenate, 5 nM fibrils
  specific binding (SB): undetectable
hTau46 fibrils; hTau46 fibrils 250 nM, saturation binding
  Kd: 19 nM
hTau46 fibrils; hTau46 fibrils
  Bmax: 1.5 ± 0.4 pmol/nmol
hTau46 fibrils; hTau46 vs αSYN fibrils
  lower affinity towards hTau46 fibrils compared to αSYN fibrils (selectivity): 30 fold
hTau46 fibrils; αSYN vs hTau46 fibrils
  Bmax higher for αSYN fibrils than for hTau46 fibrils: 7 fold
[5]; αSYN fibrils 15 nM, saturation binding
  Kd: 0.6 nM
[5]; αSYN fibrils
  Bmax: 9.7 ± 0.4 pmol/nmol
